This data set is described as follows: Ionization constant (pKa). The format is physicochemical.

Only a part of the results on these compounds is given; other tests are left out.

Consider one molecule from ChEMBL document CHEMBL1148291, “Prediction of human volume of distribution values for neutral and basic drugs. 2. Extended data set and leave-class-out statistics” (J Med Chem, 2004).

Broadly, the pKa is the pH at which an ionisable group is half protonated. Read a low pKa as a group that gives up its proton readily.

Regarding `CCC(=O)N(c1ccccc1)C1(COC)CCN(CCn2nnn(CC)c2=O)CC1`, the pKa worked out at 6.5.
